Tested on: p53-dependent transcription
Assay: p53-responsive PG13CAT reporter in U-2 OS cells
Assay type: cell-based
Method: Transfections and CAT assays. U-2 OS cells or MRC5.SV40 cells (a gift from Dr. Peter Karran) were plated onto 10 cm-diameter culture dishes and transfected at 50-70% confluency using lipofectin reagent (GIBCO-BRL) as described previously (O'Connor et al., 1996). Chloramphenicol acetyl transferase (CAT) assays have also been described previously (O'Connor et al., 1996) and the data presented represents between three and ten independent transfection experiments.
Transfections and CAT assays. U-2OS cells were plated onto 10-cm-diameter culture dishes and transfected at 50-70% confluency using lipofectin reagent (GIBCO-BRL). Chloramphenicol acetyl transferase (CAT) assays have been described elsewhere (O'Conner & Bernard, 1995) and the data presented represent between three and eight experiments using at least two independent DNA preparations.

For “full-length Mdm2: Full-length Mdm2 (1-491) expressed by co-transfection”, the “effect on TRAM activation of p53 by CBP” value (co-transfection with CMV-GST-CBP (1808-1852)) was “abolished” and the “effect on p53-dependent transcription” value (co-transfection with PG13CAT) was “reduction in p53-dependent reporter activity”.
